# Measured values as given in US7326727B2, “Furanthiazole derivatives as heparanase inhibitors” (Oxford Glycosciences (UK) Ltd., priority 2002, dated 2008).
# Protein sequences, listed by entry. Tags and fused reporters are not part of them. Residues count along the entry.
# UniProt Q9Y251, 36-109 limits assumed: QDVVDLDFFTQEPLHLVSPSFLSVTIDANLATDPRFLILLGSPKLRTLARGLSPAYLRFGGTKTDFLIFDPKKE
# UniProt Q9Y251, 158-543 limits assumed: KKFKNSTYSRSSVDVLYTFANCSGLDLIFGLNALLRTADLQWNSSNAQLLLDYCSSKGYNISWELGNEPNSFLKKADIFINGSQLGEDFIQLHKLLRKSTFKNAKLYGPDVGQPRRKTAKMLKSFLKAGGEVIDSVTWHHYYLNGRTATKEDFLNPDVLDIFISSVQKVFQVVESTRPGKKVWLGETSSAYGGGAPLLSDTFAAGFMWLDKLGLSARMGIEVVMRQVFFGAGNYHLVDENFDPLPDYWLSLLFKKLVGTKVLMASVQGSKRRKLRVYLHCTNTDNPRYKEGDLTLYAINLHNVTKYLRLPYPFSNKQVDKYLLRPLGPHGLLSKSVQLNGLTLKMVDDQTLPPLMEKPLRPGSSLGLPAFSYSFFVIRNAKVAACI
# Target: human heparanase (Homo sapiens, UniProt Q9Y251)
# Assay: Heparanase assay (bFGF binding to heparan sulphate, 96-well plate)
# Details: read-out: Inhibition of Heparanase (IC50), 2 h at 37° C., pH 5.5
compound,measurement,value
O=C(O)Cc1nc(-c2ccc(-c3ccc(NC(=O)C4=COc5ccc(Cl)cc5C4)cc3Cl)o2)cs1,IC50,1 µM
